In PubChem BioAssay AID1654 (Sanford-Burnham Center for Chemical Genomics, 2009):
The entries are a selection whose mix differs from that of the whole data set. Some tests of the compounds listed are not included; inactive here does not mean inactive elsewhere. Activity calls are given as the source filed them. No stated cut-off is given here; in the data, active means inhibition above about 50%; inactive means the rest.

Chains of the proteins cited; added tags and fusions are not shown.
UniProt P51452, whole entry: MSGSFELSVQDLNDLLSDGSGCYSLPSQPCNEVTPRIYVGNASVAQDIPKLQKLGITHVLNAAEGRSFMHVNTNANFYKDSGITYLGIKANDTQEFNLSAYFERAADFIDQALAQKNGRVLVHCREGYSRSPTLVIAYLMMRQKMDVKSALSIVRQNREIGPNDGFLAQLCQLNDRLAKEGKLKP

target: Dual specificity protein phosphatase 3 (Homo sapiens) (UniProt P51452); test: VHR1 phosphatase inhibitors, primary screen, biochemical, absorbance, uHTS (AID 1654); conditions: recombinant VHR phosphatase, pNPP absorbance; at 13.3 µM; stronger effect = higher value

SMILES | inhibition
O=C(OC1CN2CCC1CC2)C(CO)(c1ccccc1)c1ccccc1 (stereo not drawn) | inactive: 2.4%
COc1ccc(Br)c(C(=O)NCC2(N3CCCCC3)CCCCC2)c1 | inactive: 3.5%
CN(C)c1cccc(C(=O)NCC2(N(C)C)CCCCC2)c1 | inactive: 13.6%
CC(C)Oc1ccc(C(=O)NCC2(N(C)C)CCCCC2)cc1 | inactive: -1.2%
CN(C)C1(CNC(=O)c2ccc(Br)cc2)CCCCC1 | inactive: -37.7%
COc1cc(C(=O)NCC2(N(C)C)CCCCC2)c([N+](=O)[O-])cc1OC | inactive: -2%
COc1ccc(Cl)cc1C(=O)NCC1(N(C)C)CCCCC1 | inactive: 5.3%
COc1cccc(C(=O)NCC2(N3CCCCC3)CCCCC2)c1 | inactive: 5.3%
O=C(NCC1(N2CCCCC2)CCCCC1)c1cccc(Cl)c1 | inactive: 29.7%
CN(C)C1CCCC1OC(=O)C(O)(c1ccccc1)c1ccccc1 (stereo not drawn) | inactive: 3.4%
CN(C)c1ccc(C(=O)NCC2(N(C)C)CCCCC2)cc1 | inactive: 41.1%
Cc1ccccc1C(=O)NCC1(N2CCCCC2)CCCCC1 | inactive: 32.4%
O=C(NCC1(N2CCCCC2)CCCCC1)c1cc(F)c(F)cc1Cl | inactive: 29.3%
C=CCN1CCN(CCOC(=O)C(O)(c2ccccc2)c2ccccc2)CC1 | inactive: 40.7%
O=C(NCC1(N2CCCCC2)CCCCC1)c1cccc(Br)c1 | inactive: 14.1%
Cc1cc(C(=O)NCC2(N3CCCCC3)CCCCC2)ccc1[N+](=O)[O-] | inactive: 26.3%
CCN1CCCC(OC(=O)C2(O)c3ccccc3C=Cc3ccccc32)C1 (stereo not drawn) | inactive: -8%
COc1ccc(C(=O)NCC2(N(C)C)CCCCC2)cc1 | inactive: -27.7%
O=C(NCC1(N2CCCCC2)CCCCC1)c1cc([N+](=O)[O-])ccc1Cl | inactive: -0.5%
CN1[C@@H]2CC[C@H]1CC(OC(=O)C(O)(c1ccccc1)c1ccccc1)C2 (stereo partly drawn) | inactive: 16.5%
CC(C)N1C(=O)CC2(CCN(CCOC(=O)C(O)(c3ccccc3)c3ccccc3)CC2)C1=O | inactive: 0.8%
CCN(CC)CC(C)C(C)OC(=O)C(O)(c1ccccc1)c1ccccc1 (stereo not drawn) | inactive: 0.9%
Cc1ccc(C(=O)NCC2(N3CCCCC3)CCCCC2)cc1 | inactive: -2.9%
